This assay deals with HLA-A*0206 (human). Briefly: HLA class I peptide binding assay, 50% inhibitory concentration.

The molecule TLKYPIEHGI (modifications not checked) [ACTB 66-75 peptide …] yielded an IC50 of 26.4 µM.

For orientation: IC50 means the point on the concentration scale where inhibition reaches its midpoint. A low value points to greater potency in that assay.

Source of the values: EP2710378B1, “METHOD TO PROGNOSE VIRAL INFECTION BY MEASURING T CELL RESPONSE OR AUTO-ANTIBODIES TO APOPTOTIC EPITOPES” (Università degli Studi di Roma "La Sapienza", priority 2011, dated 2012).
